Data on 13 compounds can be found in PubChem BioAssay AID817 (Emory University Molecular Libraries Screening Center, 2007).

The list shows a part of the results, in another mix than the full data. Active and inactive are the calls of the source.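 How the source made its calls: active means z-score above 3 at both the 24 hr and the 30 hr optical density reads; inactive means the rest, inconclusive results apart.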

A short description of the assay: restorers of sdo1-deficient yeast growth – S. cerevisiae, bone marrow failure model, primary screen (AID 817).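 Further: z-score against mean and SD of all compound wells on the same plate.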 Conditions: S. cerevisiae sdo1-depleted JHY4D growth rescue, OD600 30 h; at 10 µM; active compounds read high; pdr5 snq2 efflux-pump mutant strain.
As for `Fc1ccccc1NC1CCN(Cc2ccccc2)CC1`, the z-score was inactive: -0.24.
The figure for `CCN1CCC(Nc2cccc(F)c2)CC1` is inactive: 1.68; for `CCOc1ncccc1C(=O)NCC1(N2CCOCC2)CCCCC1` it is inactive: 0.5.
The figure for `CCC(CO)(C(=O)OC1CN2CCC1CC2)c1ccccc1` (stereo not drawn) is inactive: 0.56.
Then `N/C(=N\O)c1c(N)no[n+]1[O-]`, with inactive: 0.59; and `O=C(OC1CN2CCC1CC2)C1c2ccccc2C=Cc2ccccc21` (stereo not drawn), with inactive: -0.68.
For `c1ccc(CN2CCC(Nc3ccccc3)CC2)cc1`, the z-score is inactive: -0.52.
Turning to `N#CC1(Nc2ccccc2)CCN(CCc2ccccc2)CC1`, the z-score is inactive: 0.52.
The figure for `CN1CCN(CCOC(=O)C(O)(c2ccccc2)c2ccccc2)CC1` is inactive: -0.26; for `O=C(NCC1(N2CCOCC2)CCCCC1)c1cc(=O)[nH]c2ccccc12` it is inactive: 0.47; for `O=C(NCC1(N2CCOCC2)CCCCC1)c1cc2ccccc2o1` it is inactive: -0.02.
Then `O=C(OC1CN2CCC1CC2)C1c2ccccc2Oc2ccccc21` (stereo not drawn), with inactive: 0.17.
Then `COc1ccc(NC2CCN(CCc3ccccc3)CC2)c(OC)c1`, with inactive: 0.38.
